# Reference: PubChem BioAssay AID1346378 (National Center for Advancing Translational Sciences (NCATS), 2018)
# By UniProt entry, the sequences of proteins in these tests, tags left out. Where a name states a change or a piece, a line headed by the entry shows the natural chain unless it says otherwise.
# UniProt Q9BTU6: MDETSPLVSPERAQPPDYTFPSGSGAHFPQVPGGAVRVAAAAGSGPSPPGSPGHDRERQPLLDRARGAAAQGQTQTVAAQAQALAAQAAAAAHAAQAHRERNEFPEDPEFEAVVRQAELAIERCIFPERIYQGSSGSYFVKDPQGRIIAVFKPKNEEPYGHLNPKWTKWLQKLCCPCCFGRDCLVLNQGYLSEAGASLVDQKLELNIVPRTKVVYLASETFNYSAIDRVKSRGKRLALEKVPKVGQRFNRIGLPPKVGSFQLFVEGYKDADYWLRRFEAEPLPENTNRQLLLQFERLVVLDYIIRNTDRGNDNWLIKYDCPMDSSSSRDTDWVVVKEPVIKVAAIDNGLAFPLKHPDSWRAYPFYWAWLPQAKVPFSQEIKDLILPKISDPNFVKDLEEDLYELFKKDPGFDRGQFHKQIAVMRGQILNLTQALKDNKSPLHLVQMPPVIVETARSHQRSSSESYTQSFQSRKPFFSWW
# About 540 (0.13%) of roughly 420,000 compounds were called active. All entries are inconclusive by the source's own rule. Clear calls are listed elsewhere. Rule as the data show it: active = activity change below about -50%; inconclusive = mostly about -30% to -49%; inactive = weaker than that.
# Target: Phosphatidylinositol 4-kinase type 2-alpha (Homo sapiens) (UniProt Q9BTU6)
# Test: qHTS for small molecular inhibitors of PI4K2A;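 also: -100% = wells without enzyme as full effect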
# Details: purified PI4K2A, ADP-Glo luminescence, 1 h; at 76.9 µM; active compounds read low
# Text: The phosphatidylinositol 4-phosphate (PI4P) is emerging as a key regulator of lipid transfer in ER-membrane contact sites. The four different phosphatidylinositol 4-kinase (PI4K) enzymes generate PI4P in different membrane compartments supporting distinct cellular processes many of which are crucial for the maintenance of cellular integrity but also hijacked by intracellular pathogens. The goal of this screening project is to search for small molecular inhibitors of PI4K2A based on a high throughput screening strategy.The ADP-Glo assay was used as a starting point to develop a miniaturized version for HTS applications. To implement the HTS screen, the PI4K ADP-Glotrade mark Kinase assay (Promega, V9102) was miniaturized for the 1536-well format used at NCGC.
# For the robotic screening, the ADP-Glo assay using the ADP-Glotrade mark Kinase Assay kit from Promega was miniaturized and optimized on 1536-well white solid bottom plates (Greiner Bio-one). The substrate, 1.2 mM PI, prepared in the assay buffer (40mM Tris pH7.5, 20mM MgCl2, 1mM EGTA, 0.4% Triton X-100, 0.5mM DTT, 0.5mg/ml BSA) and PI4K2A enzyme, diluted also in the assay buffer to 4ug/mL, were dispensed onto the plates in equal volumes (1microl/well), pinned with 23 nL/well tested compounds or control followed by dispensation of 1microl/well 300microM ATP. The plates were incubated for one hour. Then, 2 µL/well of ADP-Glo reagent was added and incubated for 40 minutes. Next, 4microL/well of Kinase Detection Buffer was added to the plates and incubated for additional 40 minutes. All incubation steps were performed at ambient temperature. The resulting luminescence signal was measured on Viewlux plate reader (PerkinElmer). Adenosine, a partial non-specific inhibitor, was used as a positive control at 100microM final concentration to assess the assay's quality and plate-to-plate reproducibility. We also used "no enzyme" control to gauge the assay's maximal potential inhibition (IC100).
row,Structure (SMILES),"activity change, negative = inhibition"
1,O=[N+]([O-])c1cc([N+](=O)[O-])c(CCNc2ccccc2)c([N+](=O)[O-])c1,inconclusive: -31.9%
2,C[N+]1=C2C=CC=CC=C2SC12C([N+](=O)[O-])=CC([N+](=O)[O-])=C[C-]2[N+](=O)[O-] (centres undefined),inconclusive: -31.6%
3,CS(=O)(=O)c1cc([N+](=O)[O-])c2no[n+]([O-])c2c1,inconclusive: -32.7%
4,CN(C)C(=O)c1cc([N+](=O)[O-])cc2c1-c1c(cc([N+](=O)[O-])cc1[N+](=O)[O-])C2=O,inconclusive: -46.7%
